# Test results reported in PubChem BioAssay AID2648 (Johns Hopkins Ion Channel Center, 2010).
# By UniProt entry, the sequences of proteins in these tests, tags left out.
# UniProt P51787, whole entry: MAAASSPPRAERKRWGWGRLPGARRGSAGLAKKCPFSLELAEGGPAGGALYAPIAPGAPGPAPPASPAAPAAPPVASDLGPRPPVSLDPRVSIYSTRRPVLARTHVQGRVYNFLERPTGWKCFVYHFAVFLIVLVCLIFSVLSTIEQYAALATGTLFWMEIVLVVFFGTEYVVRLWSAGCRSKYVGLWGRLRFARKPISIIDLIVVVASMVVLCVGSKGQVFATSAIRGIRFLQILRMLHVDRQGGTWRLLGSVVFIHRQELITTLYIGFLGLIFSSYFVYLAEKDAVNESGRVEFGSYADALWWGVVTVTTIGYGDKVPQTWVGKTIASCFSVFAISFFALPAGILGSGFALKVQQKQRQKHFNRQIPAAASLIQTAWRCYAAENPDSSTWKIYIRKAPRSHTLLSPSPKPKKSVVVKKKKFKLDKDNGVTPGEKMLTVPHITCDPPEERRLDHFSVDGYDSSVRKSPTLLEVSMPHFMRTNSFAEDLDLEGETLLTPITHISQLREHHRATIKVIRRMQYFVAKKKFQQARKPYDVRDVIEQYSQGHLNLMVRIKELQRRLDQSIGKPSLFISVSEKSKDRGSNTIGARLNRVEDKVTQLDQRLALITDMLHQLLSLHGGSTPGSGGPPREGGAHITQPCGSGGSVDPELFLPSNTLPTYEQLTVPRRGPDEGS
# The list shows a part of the results, in another mix than the full data. Some salts or complexes appear as unconnected parts, following the source record. The source made the active and inactive calls.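 How the source made its calls: active means fluorescence ratio B-score, a plate-corrected score, at least three library SD, with initial intensity B-score within 5 SD; inactive means the rest.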
# Biological target: Potassium voltage-gated channel subfamily KQT member 1 (Homo sapiens) (UniProt P51787)
# Experiment: human KCNQ1 current enhancers – cell-based, thallium flux, high-throughput, primary screen (AID 2648)
# Details: CHO-K1 KCNQ1, thallium flux FluxOR fluorescence; at 10 µM
row,SMILES,outcome
1,CC(=O)Nc1ccc([As](=O)(O)O)cc1,inactive
2,Cc1cc(C)cc(OP(C)(=O)Nc2cccc(C(F)(F)F)c2)c1 (stereo not drawn),inactive
3,O=P(Nc1nc2ccc(Cl)cc2s1)(c1ccccc1)c1ccccc1,inactive
4,Cc1ccc(NP(=O)(Oc2ccccc2F)Oc2ccccc2F)nc1,inactive
5,CN(C(=O)Cc1ccc(Cl)c(Cl)c1)[C@H]1CCCC[C@@H]1N1CCCC1,inactive
6,COc1ccccc1OP(C)(=O)Nc1ccc(C)c(C)c1 (stereo not drawn),inactive
7,CCOP(=O)(Nc1ccccc1)OCC,inactive
8,Cc1cc(SC(NC(=O)c2ccc(F)cc2)C(Cl)(Cl)Cl)ncn1 (stereo not drawn),inactive
9,COc1ccc(OP(C)(=O)Nc2ccccc2Br)cc1 (stereo not drawn),inactive
10,Cc1nc2ccc3ccccc3c2o1.O=[N+]([O-])c1cc([N+](=O)[O-])c(O)c([N+](=O)[O-])c1,inactive
11,O=[N+]([O-])c1cc([N+](=O)[O-])c(CCN2CCOCC2)c([N+](=O)[O-])c1,inactive
12,CCN(N=Nc1nonc1N)c1nonc1N,inactive
13,CP(=O)(OCCOc1ccccc1)OCCOc1ccccc1,inactive
14,CP(=O)(Nc1ccc(Cl)cc1Cl)Oc1ccccc1 (stereo not drawn),inactive
15,Nc1cccc2ccc([As](=O)(O)O)cc12,inactive
16,NC(=O)c1cc([N+](=O)[O-])cc([N+](=O)[O-])c1N,inactive
17,Cc1ccc(N/C(=N/P(=O)(N2CCOCC2)N2CCOCC2)N2CCOCC2)cc1,inactive
18,COc1ccccc1OP(C)(=O)Nc1ccc(Br)cc1 (stereo not drawn),inactive
19,Cc1ccc(OP(=O)(Nc2nccs2)Oc2ccc(C)cc2)cc1,inactive
20,COc1ccc(OP(C)(=O)Nc2ccccn2)cc1 (stereo not drawn),inactive
21,COc1ccccc1OP(=O)(Nc1ccc(C)cn1)Oc1ccccc1OC,inactive
22,Clc1ccc(Cl)c(NC2=NCC(CBr)S2)c1 (stereo not drawn),inactive
23,CN(C)CCOC(=O)C(O)(c1ccccc1)C1CCCC1 (stereo not drawn),inactive
24,CN1CCCC(OC(=O)C(c2ccccc2)c2ccccc2)C1 (stereo not drawn),inactive

row,SMILES,outcome
1,CC(C)CC(=O)NC(Sc1ccc(Cl)cc1)C(Cl)(Cl)Cl (stereo not drawn),inactive
2,O=[N+]([O-])c1cc([N+](=O)[O-])c(Nc2ccccn2)c([N+](=O)[O-])c1,inactive
3,Cc1c(NP(C)(=O)Oc2ccc(C(C)C)cc2)c(=O)n(-c2ccccc2)n1C (stereo not drawn),inactive
4,Nc1cc(N)c2nonc2c1[N+](=O)[O-],inactive
5,Cc1c2non([O-])c-2c(C)[n+](=O)[n+]1[O-],inactive
6,O=C(NC(Sc1ccncn1)C(Cl)(Cl)Cl)c1ccccc1 (stereo not drawn),inactive
7,Oc1ccccc1CNc1ccccn1,inactive
8,COc1ccccc1OP(C)(=O)Nc1ccc(C)cc1C (stereo not drawn),inactive
9,CP(=O)(Nc1ccccn1)Oc1ccccc1 (stereo not drawn),inactive
10,CCc1ccc(OP(C)(=O)O)cc1,inactive
11,COc1ccc(C2=NCC(CBr)S2)cc1 (stereo not drawn),inactive
12,COc1ccc(OP(C)(=O)Nc2ccc(Br)cc2)cc1 (stereo not drawn),inactive
13,CCN(CC)CC(O)COC(=O)C(O)(c1ccccc1)C1CCCCC1 (stereo not drawn),inactive
14,O=C(OCCCN1CCCC1)C(O)(c1ccccc1)C1CCCCC1 (stereo not drawn),inactive
15,COc1ccccc1OP(C)(=O)Nc1c(C)n(C)n(-c2ccccc2)c1=O (stereo not drawn),inactive
16,O=[N+]([O-])c1cccc2n[nH]nc12,inactive
17,CC(=O)N1C2C3N(C(C)=O)C1C1N(C(C)=O)C(C(N1C(C)=O)N3C(C)=O)N2C(C)=O,inactive
18,CCc1nc2c(n1)c1c(non1O)c1c2no[n+]1[O-],inactive
19,O=[N+]([O-])c1cc([N+](=O)[O-])c(CCNc2ccccc2)c([N+](=O)[O-])c1,inactive
20,CCc1ccc(OP(C)(=O)Nc2cccnc2)cc1 (stereo not drawn),inactive
21,Cc1ccc(NP(=O)(Oc2ccccc2)Oc2ccccc2)nc1,inactive
22,CP(=O)(Oc1ccccc1)N1CCOC1=O (stereo not drawn),inactive
23,C[N+]1=C2C=CC=CC=C2SC12C([N+](=O)[O-])=CC([N+](=O)[O-])=C[C-]2[N+](=O)[O-] (stereo not drawn),inactive
24,CC(C)(C)c1ccc(OP(C)(=O)O)cc1,inactive

row,SMILES,outcome
1,Nc1ccc([As](=O)(O)c2ccc(N)cc2)cc1,inactive
2,COc1ccccc1OP(C)(=O)Nc1ccccc1Br (stereo not drawn),inactive
3,CP(=O)(Nc1ccc(Cl)cc1)Oc1ccc(F)cc1 (stereo not drawn),inactive
4,CCN(/C(=N/P(=O)(N1CCOCC1)N1CCOCC1)N1CCOCC1)c1ccc(OC)cc1,inactive
5,CN(C)C(=O)OCCc1n(C)cc[n+]1C,inactive
6,CN(C)C(=O)c1c([N+](=O)[O-])cc([N+](=O)[O-])cc1[N+](=O)[O-],inactive
7,CC(C)=N/N=C(\N)N[N+](=O)[O-],inactive
8,CC1CCN(C(=O)Oc2c(Cl)cc(Cl)c3cccnc23)CC1,inactive
9,Nc1ccc2c(ccc3cccnc32)n1.O=[N+]([O-])c1cc([N+](=O)[O-])c(O)c([N+](=O)[O-])c1,inactive
10,O=C(Nc1cc([As](=O)(O)O)ccc1O)c1ccccc1,inactive
11,CCOC(=O)c1ccc(NP(C)(=O)Oc2ccc(Cl)cc2)cc1 (stereo not drawn),inactive
12,CP(=O)(OC12CC3CC(CC(C3)C1)C2)OC12CC3CC(CC(C3)C1)C2,inactive
13,CC(C)(C)C(=O)NC(Sc1ccncn1)C(Cl)(Cl)Cl (stereo not drawn),inactive
14,O=[N+]([O-])c1ncn(CCn2ncnc2[N+](=O)[O-])n1,inactive
15,O=[N+]([O-])c1cccc(NC2=NCC(CBr)S2)c1 (stereo not drawn),inactive
16,O=C(O)CNc1ccc([As](=O)(O)O)cc1,inactive
17,COc1ccc(OP(C)(=O)Nc2cccc(Br)c2)cc1 (stereo not drawn),inactive
18,O=P(Nc1ccccn1)(c1ccc(Br)cc1)c1ccc(Br)cc1,inactive
19,CN(C)C1(CNC(=O)c2ccc(Cl)c(S(N)(=O)=O)c2)CCCCC1,inactive
20,C[C@H]1OP(=O)(Oc2ccccc2)[C@H](O)[C@H](O)[C@H]1N=[N+]=[N-] (stereo partly drawn),inactive
21,CN(C)CCOC(=O)C(O)(c1ccccc1)C1CCCCC1 (stereo not drawn),inactive
22,O=P(Nc1nc2ccccc2s1)(c1ccccc1)c1ccccc1,inactive
23,COc1ccc(NP(C)(=O)Oc2ccccc2OC)cc1 (stereo not drawn),inactive
24,O=[N+]([O-])c1ccc(O)c(/C=N/Nc2ccc([N+](=O)[O-])cc2[N+](=O)[O-])c1,inactive

row,SMILES,outcome
1,O=[N+]([O-])c1ncn(CCn2cnc([N+](=O)[O-])n2)n1,inactive
2,O=[N+]([O-])c1ccc(OP2(=O)COCCO2)cc1 (stereo not drawn),inactive
3,CC(=O)NC(SC(=S)N(C)C)C(Cl)(Cl)Cl (stereo not drawn),inactive
4,O=[N+]([O-])c1cc([N+](=O)[O-])c(NCC2CCS(=O)(=O)C2)c([N+](=O)[O-])c1 (stereo not drawn),inactive
5,Cc1cc(-c2cccc3ccccc23)c(C)cn1.O=[N+]([O-])c1cc([N+](=O)[O-])c(O)c([N+](=O)[O-])c1,inactive
6,O=[As](O)(c1ccccc1)c1ccc(O)cc1,inactive
7,Nc1ccc([As](=O)(O)c2ccc([N+](=O)[O-])cc2)cc1,inactive
8,C(Cc1nn[nH]n1)Cc1nn[nH]n1,inactive
9,O=C(OC1CN2CCC1CC2)c1cccc(Cl)c1 (stereo not drawn),inactive
10,CP(=O)(Nc1ccc(SC(F)(F)F)cc1)Oc1ccc(F)cc1 (stereo not drawn),inactive
11,CC(C)C(=O)NC(Sc1ccccc1)C(Cl)(Cl)Cl (stereo not drawn),inactive
12,O=P(Nc1nccs1)(c1ccccc1)c1ccccc1,inactive
13,CCOP(C)(=S)SCC(=O)NC(C)(CC)C(=O)O (stereo not drawn),inactive
14,c1nnnn1CCn1cnnn1,inactive
15,CP(=O)(Nc1ccc2c(c1)OCCO2)Oc1ccccc1 (stereo not drawn),inactive
16,CCOc1ccc(C2=NCC(CBr)S2)cc1 (stereo not drawn),inactive
17,O=P1(Nc2nc3ccc(Cl)cc3s2)COc2ccccc2O1 (stereo not drawn),inactive
18,CP(=O)(Nc1ccccc1F)Oc1ccccc1 (stereo not drawn),inactive
19,CC(C)c1ccc(OP(C)(=O)Nc2ccc(SC(F)(F)F)cc2)cc1 (stereo not drawn),inactive
20,CC(C)(C)C(=O)NC(Sc1ccccc1)C(Cl)(Cl)Cl (stereo not drawn),inactive
21,O=C(OC1CN2CCC1CC2)c1ccc([N+](=O)[O-])cc1 (stereo not drawn),inactive
22,CC(=O)c1ccc(N2CC2c2ccncc2)cc1 (stereo not drawn),inactive
23,C[C@@H]1C=CCP(=O)(Oc2ccccc2)O1 (stereo partly drawn),inactive
24,C[C@H]1OP(=O)(Oc2ccccc2)C[C@@H]2O[C@@H]21 (stereo partly drawn),inactive

row,SMILES,outcome
1,O=C(OCCN1CCN(CCOCc2ccccc2)CC1)C(O)(c1ccccc1)c1ccccc1,inactive
2,CC(=O)Nc1ccc(Oc2c([N+](=O)[O-])cc([N+](=O)[O-])cc2[N+](=O)[O-])cc1,inactive
3,COc1ccc2c(c1O)-c1c(O)c(OC)cc3c1[C@H](C2)[N+](C)(C)CC3.O=[N+]([O-])c1cc([N+](=O)[O-])c([O-])c([N+](=O)[O-])c1[O-],inactive
4,CC(=O)Nc1ccc([As](=O)(O)O)c(O)c1,inactive
5,CCNC(=S)/N=C(\N)N[N+](=O)[O-],inactive
6,O=C(NC1CCS(=O)(=O)C1)NP(=S)(Oc1ccccc1)Oc1ccccc1 (stereo not drawn),inactive
7,CCOC(=O)NC(Sc1ccccc1)C(Cl)(Cl)Cl (stereo not drawn),inactive
8,Cc1ccc(NP(=O)(Oc2cccc(C)c2)Oc2cccc(C)c2)nc1,inactive
9,c1ccc(-c2nn[nH]n2)c(-c2nn[nH]n2)c1,inactive
10,CCOC(=O)c1ccc(NP(C)(=O)Oc2ccc(F)cc2)cc1 (stereo not drawn),inactive
11,COc1ccc(OP(C)(=O)Nc2ccc(SC(F)(F)F)cc2)cc1 (stereo not drawn),inactive
12,Cc1ccc(OP(=O)(Nc2ccccn2)Oc2ccc(C)cc2)cc1,inactive
13,CC(=O)NC(SC(=S)N(CC(C)C)CC(C)C)C(Cl)(Cl)Cl (stereo not drawn),inactive
14,COC(=O)c1cc2c(s1)N=C(c1ccccc1)N(C)P2(=O)N1CCOCC1 (stereo not drawn),inactive
15,CCN(CC)CCCOC(=O)C(O)(c1ccccc1)C1CCCCC1 (stereo not drawn),inactive
16,CCC(=O)N1C2C3N(C(=O)CC)C1C1N(C(=O)CC)C(C(N1C(=O)CC)N3C(=O)CC)N2C(=O)CC,inactive
17,O=C(OC1CN2CCC1CC2)c1ccccc1 (stereo not drawn),inactive
18,CP(=O)(Nc1ccccc1)Oc1ccc(F)cc1 (stereo not drawn),inactive
19,CN(C)C(=O)Oc1noc2ccccc12,inactive
20,O=[N+]([O-])c1cc([N+](=O)[O-])c(OC2CCCCC2O)c([N+](=O)[O-])c1 (stereo not drawn),inactive
21,CCCCCOc1ccc(NP(C)(=O)Oc2ccc(Cl)cc2Cl)cc1 (stereo not drawn),inactive
22,Cc1ccccc1OP(=O)(Nc1ccccn1)Oc1ccccc1C,inactive
